US6630464B1, “Cyclin dependent kinase (CDK)4 inhibitors and their use for treating cancer” (The United States of America as represented by the …, priority 1997, dated 2003)

By UniProt entry, the sequences of proteins in these tests, tags left out. Where a name states a change or a piece, a line headed by the entry shows the natural chain unless it says otherwise.
UniProt P06493, whole entry: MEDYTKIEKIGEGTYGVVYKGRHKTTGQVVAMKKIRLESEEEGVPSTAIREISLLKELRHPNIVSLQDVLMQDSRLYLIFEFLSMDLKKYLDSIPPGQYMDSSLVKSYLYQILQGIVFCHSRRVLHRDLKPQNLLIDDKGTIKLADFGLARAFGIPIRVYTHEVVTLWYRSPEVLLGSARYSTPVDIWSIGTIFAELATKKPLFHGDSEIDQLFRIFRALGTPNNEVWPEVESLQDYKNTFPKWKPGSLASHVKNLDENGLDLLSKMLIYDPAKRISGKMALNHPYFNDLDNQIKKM
UniProt P11802, whole entry: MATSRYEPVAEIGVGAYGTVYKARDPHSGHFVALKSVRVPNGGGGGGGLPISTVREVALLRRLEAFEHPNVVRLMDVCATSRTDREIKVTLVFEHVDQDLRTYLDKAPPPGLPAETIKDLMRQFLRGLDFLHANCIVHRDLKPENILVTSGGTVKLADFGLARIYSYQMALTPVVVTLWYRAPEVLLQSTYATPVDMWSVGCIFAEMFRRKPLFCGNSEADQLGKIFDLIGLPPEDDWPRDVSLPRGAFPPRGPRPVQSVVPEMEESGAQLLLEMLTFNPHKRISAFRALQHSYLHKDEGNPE
UniProt P20248, whole entry partner: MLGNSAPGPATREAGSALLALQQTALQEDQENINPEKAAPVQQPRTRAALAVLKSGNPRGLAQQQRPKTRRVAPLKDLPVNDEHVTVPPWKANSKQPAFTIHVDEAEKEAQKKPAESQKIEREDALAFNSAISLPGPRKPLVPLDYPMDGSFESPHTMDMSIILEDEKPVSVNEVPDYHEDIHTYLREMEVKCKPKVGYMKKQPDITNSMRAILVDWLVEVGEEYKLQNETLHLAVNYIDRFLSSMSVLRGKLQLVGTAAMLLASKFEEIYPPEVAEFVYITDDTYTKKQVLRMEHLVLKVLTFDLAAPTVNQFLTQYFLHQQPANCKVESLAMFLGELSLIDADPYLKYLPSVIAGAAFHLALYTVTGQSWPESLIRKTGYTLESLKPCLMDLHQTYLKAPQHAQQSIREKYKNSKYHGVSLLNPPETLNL
UniProt P24385, whole entry partner: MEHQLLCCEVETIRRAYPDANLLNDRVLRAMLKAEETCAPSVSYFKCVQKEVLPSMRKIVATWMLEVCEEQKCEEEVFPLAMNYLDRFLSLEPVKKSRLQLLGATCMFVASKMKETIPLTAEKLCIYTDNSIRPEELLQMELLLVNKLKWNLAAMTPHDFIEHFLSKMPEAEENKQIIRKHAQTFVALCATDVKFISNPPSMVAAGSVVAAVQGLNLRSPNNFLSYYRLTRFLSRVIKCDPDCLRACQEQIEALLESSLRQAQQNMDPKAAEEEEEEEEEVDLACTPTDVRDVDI

Key:
[1] = biological target: CDC2:cyclin A (Homo sapiens, UniProt P06493); assay: In vitro kinase assay, CDC2:cyclin A; type: biochemical
[2] = biological target: CDK2:cyclin A (Homo sapiens, UniProt P24941); assay: In vitro kinase assay, CDK2:cyclin A; type: biochemical; details: concentrations up to 100 μM
[3] = biological target: CDK2:cyclin E (Homo sapiens, UniProt P24941); assay: In vitro kinase assay, CDK2:cyclin E; type: biochemical; details: concentrations up to 100 μM
[4] = biological target: CDK4:cyclin D1 (Homo sapiens, UniProt P11802); assay: In vitro kinase assay, CDK4:cyclin D1, GST-Rb substrate

- Ratio CDC2A:CDK4 ([1]; (IC50 CDC2)/(IC50 CDK4)): > 58.8
- IC50 ([1]; read-out: IC50 value CDC2/A): > 100000 nM
- IC50 ([4]; read-out: IC50 value CDK4/D1): 1700 nM
Compound: CCN1C(Cl)=NS(=O)(=O)c2ccccc21
- CDC2 kinase inhibitory activity ([1]; concentrations up to 100 μM): no CDC2 or CDK2 kinase inhibitory activity
- CDK2 kinase inhibitory activity (CDK2:cyclin A) [2]: no CDC2 or CDK2 kinase inhibitory activity
- CDK2 kinase inhibitory activity (CDK2:cyclin E) [3]: no CDC2 or CDK2 kinase inhibitory activity
- CDK4 kinase inhibitory potency compared with parent compounds ([4]; parents 3-ATA and Compound 6): more potent CDK4 kinase inhibitors than the parent compounds
